Chains of the proteins cited; added tags and fusions are not shown.
UniProt P15056, whole entry: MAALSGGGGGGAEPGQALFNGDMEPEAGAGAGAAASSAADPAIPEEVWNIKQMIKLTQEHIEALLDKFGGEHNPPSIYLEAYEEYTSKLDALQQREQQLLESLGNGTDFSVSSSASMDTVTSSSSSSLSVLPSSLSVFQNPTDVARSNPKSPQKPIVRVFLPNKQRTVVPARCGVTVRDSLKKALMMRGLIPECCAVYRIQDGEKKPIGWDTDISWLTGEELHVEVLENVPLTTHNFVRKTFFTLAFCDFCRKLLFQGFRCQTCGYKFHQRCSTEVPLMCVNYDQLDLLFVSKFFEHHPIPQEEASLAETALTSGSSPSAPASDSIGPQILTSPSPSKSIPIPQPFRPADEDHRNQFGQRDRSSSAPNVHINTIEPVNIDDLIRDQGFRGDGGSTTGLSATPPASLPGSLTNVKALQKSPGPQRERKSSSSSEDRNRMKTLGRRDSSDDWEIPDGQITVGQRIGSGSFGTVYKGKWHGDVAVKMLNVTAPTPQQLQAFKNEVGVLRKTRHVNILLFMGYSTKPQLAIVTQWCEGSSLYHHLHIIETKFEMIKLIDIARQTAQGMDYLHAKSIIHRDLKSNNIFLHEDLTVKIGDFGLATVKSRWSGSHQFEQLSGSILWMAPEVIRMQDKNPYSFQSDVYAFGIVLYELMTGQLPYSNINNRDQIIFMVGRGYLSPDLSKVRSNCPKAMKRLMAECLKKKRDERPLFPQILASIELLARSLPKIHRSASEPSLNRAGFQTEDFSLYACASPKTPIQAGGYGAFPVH

According to paper PMC6504641 (Chembiochem : a European journal of chemical biology, 2018):

Target: BRAF (Homo sapiens, UniProt P15056)
Experiment: ELISA kinase assay, phospho-MEK1 readout
Assay type: biochemical

pIC50: 9.96
SMILES: CN(C)CCOc1ccc(-c2nc(-c3ccncc3)c(-c3ccc4c(c3)CC/C4=N\O)[nH]2)cc1 [SB-590885]

pIC50: −log10 of the molar value.
